Literature values as cited in article PMC10527924 (Toxicology in vitro : an international journal published in …, 2023).

Details: not measured for this paper; no reference given; cited from earlier work

Question: Which “Log Kow (n-octanol-water partition coefficient)” value does the source give for `C[C@]12CC[C@H]3[C@@H](CCC4=CC(=O)CC[C@@]43C)[C@@H]1CC[C@@H]2O` [testosterone] here?
Answer: 3.32
